Reference: patent US20150202186A1, “CYSTATHIONINE-(gamma)-LYASE (CSE) INHIBITORS FOR TREATING PAIN” (SOVA PHARMACEUTICALS, INC., priority 2014, published 2015)

The molecules below were run against recombinant CSE (cystathionine-γ-lyase) (UniProt P32929) (assay: CSE In Vitro Assay). Conditions: recombinant CSE 20 ug/ml, 50 uM PLP, DL-Homocysteine substrate, 3 hours at 37° C., absorbance at 671 nm.
C#CC[C@H](N)C(=O)NS(C)(=O)=O [Compound 9] showed an IC50 of 25 to 100 µM. In the case of C1CCC(=NNc2nnn[nH]2)C1 [Compound 33], the IC50 is reported as < 25 µM. For C(=N\Nc1nnn[nH]1)/c1ccccc1 [Compound 26], the IC50 was 25 to 100 µM. In the case of CNCCCN(N)c1nnn[nH]1 [Compound 24], the IC50 is reported as < 25 µM. For CC(C)CN(N)c1nnn[nH]1 [Compound 19], the IC50 was > 100 µM. With CN(C)CCN(N)c1nnn[nH]1 [Compound 11] the IC50 was > 100 µM. Molecule C#CC[C@H](N)C(=O)Nc1nn[nH]n1 [Compound 7] has an IC50 of 25 to 100 µM. In the case of CCN(N)C(=O)NS(=O)(=O)c1ccccc1 [Compound 43], the IC50 is reported as > 100 µM. C#CC[C@H](N)c1nnn[nH]1 [Compound 2] was tested, and the IC50 was < 25 µM. For CNCCN(N)c1nnn[nH]1 [Compound 23], the IC50 was 25 to 100 µM. With CN(C)c1ccc(/C=N/Nc2nnn[nH]2)cc1 [Compound 27] the IC50 was 25 to 100 µM. In the case of Clc1ccc(/C=N/Nc2nnn[nH]2)c(Cl)c1 [Compound 28], the IC50 is reported as > 100 µM. With C#CC[C@H](N)c1noc(=O)[nH]1 [Compound 3] the IC50 was < 25 µM. C#CC[C@H](N)c1nc(C(F)(F)F)n[nH]1 [Compound 5] was tested, and the IC50 was > 100 µM. With C/C(=N\Nc1nnn[nH]1)c1ccc(N(C)C)cc1 [Compound 31] the IC50 was < 25 µM. With COCCCN(N)c1nnn[nH]1 [Compound 14] the IC50 was > 100 µM. In the case of CCN(N)C(=O)c1nnn[nH]1 [Compound 41], the IC50 is reported as > 100 µM. For CNc1ccc(/C=N/N(C)c2nnn[nH]2)cc1 [Compound 36], the IC50 was 25 to 100 µM. With CCN(N)c1ncn[nH]1 [Compound 39] the IC50 was > 100 µM. For CC(C)N(N)c1nnn[nH]1 [Compound 18], the IC50 was > 100 µM. With CN(N)c1nnn[nH]1 [Compound 20] the IC50 was < 25 µM. For Clc1ccc(/C=N/Nc2nnn[nH]2)cc1 [Compound 29], the IC50 was < 25 µM. CCN(N)C(=O)Nc1nnn[nH]1 [Compound 42] was tested, and the IC50 was > 100 µM. In the case of NCCCN(N)c1nnn[nH]1 [Compound 21], the IC50 is reported as < 25 µM. With CC(C)=NNc1nnn[nH]1 [Compound 30] the IC50 was < 25 µM. C#CC[C@H](N)C(=O)NS(=O)(=O)c1ccccc1 [Compound 8] gave an IC50 of 25 to 100 µM. N#CCC(N)c1nnn[nH]1 (centres unmarked) [Compound 1] was tested, and the IC50 was > 100 µM. CCCN(N)c1nnn[nH]1 [Compound 16] was tested, and the IC50 was 25 to 100 µM. For CC(C)=NN(C)c1nnn[nH]1 [Compound 37], the IC50 was < 25 µM. In the case of C#CCN(N)c1nnn[nH]1 [Compound 12], the IC50 is reported as < 25 µM. C#C[C@H](N)c1nc(N)n[nH]1 [Compound 6] was tested, and the IC50 was > 100 µM. CN(N)c1noc(=O)[nH]1 [Compound 40] was tested, and the IC50 was 25 to 100 µM. In the case of C#CC[C@H](N)c1ncn[nH]1 [Compound 4], the IC50 is reported as < 25 µM. In the case of CC/C(C)=N/Nc1nnn[nH]1 [Compound 34], the IC50 is reported as < 25 µM. CN(C)CCCN(N)c1nnn[nH]1 [Compound 10] gave an IC50 of 25 to 100 µM. For NN(Cc1ccccc1)c1nnn[nH]1 [Compound 17], the IC50 was > 100 µM. For C1CCC(=NNc2nnn[nH]2)CC1 [Compound 32], the IC50 was < 25 µM. With NCCN(N)c1nnn[nH]1 [Compound 22] the IC50 was < 25 µM.
